Assay in all cases: fluorescence polarization
In general terms: In fluorescence polarisation assays a small probe gives low polarisation when free and higher when bound to something large.

Assay [1] addresses T1, 2a* (not fully specified; reading uncertain).
T1 chain: {FITC-PEG}-PL[His(π-(CH2)8Ph)]S[pT]

The target of assay [2] is T2, 3m* (not fully specified; reading uncertain).
T2 chain: {FITC-PEG}-PL[His(π-(CH2)8Ph,τ-CH2CH2CH(OH)CH2OH)]S[pT]

In assay [3] the target is T3, 3c* (not fully specified (residue 3); reading uncertain; also: His N(tau)-hydroxyalkyl, not given here).
T3 chain: {FITC-PEG}-PLHS[pT]

Square brackets hold non-standard residues; d marks the D form. Ends that are not written are not given here. * marks the point of attachment. His(π-(CH2)8Ph,τ-CH2CH2CH(OH)CH2OH) = His N(pi)-(CH2)8Ph and N(tau)-CH2CH2CH(OH)CH2OH; FITC = O=C1OC2(c3ccc(O)cc3Oc3cc(O)ccc32)c2ccc(NC(=S)*)cc21; His(π-(CH2)8Ph) = N[C@@H](Cc1cncn1CCCCCCCCc1ccccc1)C(=O)O; pT = C[C@@H](OP(=O)(O)O)[C@H](N)C(=O)O; PEG = not defined here

B1: Plk1 PBD PBD (protein)
chain: SIAPSSLDPSNRKPLTVLNKGLENPLPERPREKEEPVVRETGEVVDCHLSDMLQQLHSVNASKPSERGLVRQEEAEDPACIPIFWVSKWVDYSDKYGLGYQLCDNSVGVLFNDSTRLILYNDGDSLQYIERDGTESYLTVSSHPNSLMKKITLLKYFRNYMSEHLLKAGANITPREGDELARLPYLRTWFRTRSAIILHLSNGSVQINFFQDHTKLILCPLMAAVTYIDEKRDFRTYRLSLLEEYGCCKELASRLRYARTMVDKLLSSRSASNRLKAS
By Kd is commonly meant a measure of binding affinity in units of concentration. On to B1, for which the Kd was determined as 12 nM in assay [1], 3 nM in assay [2] and 2 nM in assay [3].

For the origin of these results see PMC4895914 (2014).
